The data set has as its system rat gastric mucosa. The settings on record: male, Wistar, in vivo, po, 4 days. On the procedure:
The animals entered in the trial, randomized and divided into groups of 6 rats each, were fasted for 16 h prior to treatment, with access to water ad libitum. They were re-fed 1 h after drug administration. The compound 2-methoxyphenyl-1-methyl-5p-methylbenzoyl-pyrrol-2-acetamido acetate and the other reference NSAIDs, suspended in 1% carboxymethylcellulose (CMC) solution, were orally administered by gastric gavage in a volume of 6ml/kg for four consecutive days. Controls received the vehicle in the same way as the treated animals. 4 h after the last administration the animals were killed by ether overdose; the stomachs were removed, rinsed with 10 ml of saline and immersed in 1% formalin. They were later opened along the greater curvature and the mucosa examined for lesions.
The seriousness of the lesion was quantified according to a scale graduated from 1 to 3 according to the size of the lesions: 1= ulcer < 1mm; 2= ulcer 1-2mm; 3= ulcer > 2mm. […] The gastric lesions were evaluated by two independent investigators under blind conditions according to Main & Whittle method (BJ Pharmac 1975:53; p. 217-224).
Since the average daily dose in man (for the anti-inflammatory activity) is 600 mg, the comparative efficacious dose in the rat is in the ratio of 12:1. […] To evaluate the "ratio to rat dosage" the ID50 has been determined using the carrageenin-induced oedema as inflammatory test. […]

On to `CS(=O)(=O)Nc1ccc([N+](=O)[O-])cc1Oc1ccccc1` [Nimesulide, nimesulide], for which the Gastrolesive index turned out to be 46.2.

The record behind these values is patent EP1310250A1, “Use of the compound 2-methoxyphenyl-1-methyl-5P-methylbenzoyl-pyrrol-2-acetamido acetate for the production of an antiinflammatory drug with prevention of gastric hypersecretion and renal impairment” (MEDOSAN Ricerca S.r.l., priority 1997, dated 1999).
